Assay results: PubChem BioAssay AID504672 (Sanford-Burnham Center for Chemical Genomics, 2011)

Test system: S. cerevisiae tim10 strain, luminescence counterscreen
Assay: signal inhibition in TIM10 yeast counter-screen, dose response, counter-screen for tim23-1 inhibitor project, luminescence, S. cerevisiae, uHTS hits (AID 504672);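 also: yeast grew roughly 22 hours at 25 °C before the luminescence read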

**Q.** `COc1ccc(C(C[N+](=O)[O-])c2c(C)[nH]n(-c3ccccc3)c2=O)cc1` (stereo unspecified) was tested. Which IC50 did it give?
**A.** Its IC50 is 14.6 µM.
